These are literature values, as cited in US8278267B2 (Amylin Pharmaceuticals, LLC, priority 2005, dated 2012).

For data set [1] the following is noted: e.g., provoking marked hyperlactemia followed by hyperglycemia; cited from earlier work.
For data set [2] the following is noted: cited from earlier work.

For the compound `CC[C@H](C)[C@H](NC(=O)[C@@H]1CCCN1C(=O)CNC(=O)[C@H](Cc1ccccc1)NC(=O)[C@H](CC(N)=O)NC(=O)[C@H](CC(N)=O)NC(=O)[C@H](CO)NC(=O)[C@H](CO)NC(=O)[C@H](Cc1c[nH]cn1)NC(=O)[C@@H](NC(=O)[C@H](CC(C)C)NC(=O)[C@H](Cc1ccccc1)NC(=O)[C@H](CC(N)=O)NC(=O)[C@H](C)NC(=O)[C@H](CC(C)C)NC(=O)[C@H](CCCNC(=N)N)NC(=O)[C@H](CCC(N)=O)NC(=O)[C@@H](NC(=O)[C@H](C)NC(=O)[C@@H]1CSSC[C@H](NC(=O)[C@@H](N)CCCCN)C(=O)N[C@@H](CC(N)=O)C(=O)N[C@@H]([C@@H](C)O)C(=O)N[C@@H](C)C(=O)N[C@@H]([C@@H](C)O)C(=O)N1)[C@@H](C)O)C(C)C)C(=O)N[C@@H](CC(C)C)C(=O)N1CCC[C@H]1C(=O)N1CCC[C@H]1C(=O)N[C@H](C(=O)N[C@@H](CC(N)=O)C(=O)N[C@H](C(=O)NCC(=O)N[C@@H](CO)C(=O)N[C@@H](CC(N)=O)C(=O)N[C@H](C(=O)N[C@@H](Cc1ccc(O)cc1)C(N)=O)[C@@H](C)O)C(C)C)[C@@H](C)O` [Pramlintide, ^25,28,29Pro-h-amylin], the “amylin activity in vivo” value in data set [1] is on record as “show amylin activity in vivo”. In data set [2], the “solubility and stability characteristics compared to human amylin” value was “more desirable solubility and stability characteristics”.
